# Reference: article PMC5000766, “Inhibitory Effect of 2,3,5,6-Tetrafluoro-4-[4-(aryl)-1H-1,2,3-triazol-1-yl]benzenesulfonamide Derivatives on HIV Reverse Transcriptase Associated RNase H Activities” (International Journal of Molecular Sciences, 2016)
# Legend:
# [1] = target: HIV-1 IN in the presence of LEDGF/p75 (Human immunodeficiency virus type 1 group M subtype B, UniProt P04585); assay: biochemical
# [2] = target: T1, HIV-1 RT-associated RNase H (Human immunodeficiency virus type 1 group M subtype B, UniProt P04585); assay: HIV-1 RNase H polymerase-independent cleavage assay; format: biochemical
# T1 construct: The recombinant HIV-1 RT protein; His tag; made in house; host or cells: E. coli strain M15
# [3] = target: HIV-1 RT-associated RNA-dependent DP (Human immunodeficiency virus type 1 group M subtype B, UniProt P04585); assay: biochemical
SMILES,IC50 [1] [µM],IC50 [2] [µM],IC50 [3] [µM],specificity index (SpI) ([2]; ratio of the RNase H IC50 value vs. the DP IC50 value)
CCCCCc1ccc(-c2cn(-c3ccc(S(N)(=O)=O)cc3)nn2)cc1 [Compound 9d],> 100,63 ± 7,> 100,–
CCCCCc1ccc(-c2cn(-c3c(F)c(F)c(S(N)(=O)=O)c(F)c3F)nn2)cc1 [Compound 10d],> 100,6.6 ± 0.5,33.4 ± 5.8,~ 5
